Laboratory results published in patent US20040022733A1, “Conjugated lysine copolymers” (priority 2002, published 2004).

System: rat mammary adenocarcinoma cells (ATCC 13762, Mat B cells)
Test: MR imaging on a rat tumor model (tumor enhancement)
Assay type: in vivo
Settings: Fisher 344 female rats, tail vein, dose 0.025 mmole Gd/kg, T1 weighted images at 2T
Procedure: Imaging was done on a rat tumor model. Specifically, rat mammary adenocarcinoma cells (ATCC 13762, Mat B cells) were implanted in Fisher 344 female rats ([…] in 0.5 ml phosphate buffered saline). After 7-9 days, tumors were about 10 mm in diameter and the imaging was done at that point. Imaging was performed using a GE CSI scanner at 2T with a 33 cm bore. A birdcage quadrature coil was used for transmission and receiving. T1 weighted images were obtained (TR 250 ms, TE 18 MS, NEX 16). Rats were imaged prior to injection of contrast agent. […] The rats were then imaged immediately after injection and then at 24 hours. Imaging efficacy was 67% tumor enhancement compared to 15% for globular (albumin (Gd)DTPA) or coiled (25-35% free lysine content) agents at the same dose.

## albumin (Gd)DTPA: globular contrast agent, albumin carrying Gd-DTPA
  tumor enhancement (imaging efficacy): 15%
